Literature values as cited in US20100286233A1, “PERIPHERAL AND NEURAL INFLAMMATORY CROSSTALK” (University of Rochester, priority 2006, published 2010).

Key:
Details in all cases: cited from earlier work
μ-receptors = μ-receptors (Homo sapiens, UniProt P35372)
δ-receptors = δ-receptors (Homo sapiens, UniProt P41143)
κ-receptors = κ-receptors (Homo sapiens, UniProt P41145)

Molecule | affinity for μ-receptors (μ-receptors) | affinity for δ-receptors (δ-receptors) | affinity for κ-receptors (κ-receptors)
dynorphin A: opioid fragment of pro-dynorphin, SEQ ID NO: 135 | significant affinity |  | 
Nociceptin/orphanin FQ: endogenous ligand for the ORL1-receptor, processed from pro-nociceptin/orphanin FQ |  | little affinity | little affinity
CC(C)[C@H](NC(=O)[C@H](CCC(=O)O)NC(=O)[C@H](Cc1ccccc1)NC(=O)[C@@H](C)NC(=O)[C@@H](N)Cc1ccc(O)cc1)C(=O)N[C@H](C(=O)NCC(=O)O)C(C)C [deltorphin, Tyr-D-Met-Phe-His-Leu-Met-Asp-NH2] |  | highly selective | 
YGGFLRRQFKVVT [dynorphin B] | significant affinity |  | 
